Source: US11046694B2, “Compounds and methods for treating bacterial infections” (Entasis Therapeutics, Inc., priority 2018, dated 2021)
Structures can show the parent of a compound that is named as a salt.

Tested on: P. aeruginosa clinical isolate (ARC6347, AmpC+, PoxB+)
Experiment: In vivo efficacy in a neutropenic murine thigh model
Conditions: neutropenic CD-1 mice, subcutaneous, 8 doses 3 hours apart

| Structure (SMILES) | Log(CFU/g) reduction in thigh | In vivo efficacy (stasis) in thigh model |
| --- | --- | --- |
| CN/C(=N\O)[C@@H]1c2c(cnn2C)[C@@H]2CN1C(=O)N2OS(=O)(=O)O (stereo in doubt) [Example 40, Sodium (4R*,8S*)-8-((Z)—N′-hydroxy-N-methylcarbamimidoyl)-1-methyl-6-oxo-4,8-dihydro-1H-4,7-methanopyrazolo[3,4-e][1,3]diazepin-5(6H)-yl hydrogen sulfate] | more than 2 Log(CFU/g) |  |
| Cn1ncc2c1[C@@H](CN)N1C[C@@H]2N(OS(=O)(=O)O)C1=O [Comparator 1, reference compound] |  | not active |
